# From BindingDB's records for doi:10.3109/14756366.2011.643303 (Ondokuz Mayis University, 2013)
# Protein sequences, listed by entry. Tags and fused reporters are not part of them. Lines headed by an entry give the natural chain unless they say otherwise; changes in a name come on top.
# UniProt P22748: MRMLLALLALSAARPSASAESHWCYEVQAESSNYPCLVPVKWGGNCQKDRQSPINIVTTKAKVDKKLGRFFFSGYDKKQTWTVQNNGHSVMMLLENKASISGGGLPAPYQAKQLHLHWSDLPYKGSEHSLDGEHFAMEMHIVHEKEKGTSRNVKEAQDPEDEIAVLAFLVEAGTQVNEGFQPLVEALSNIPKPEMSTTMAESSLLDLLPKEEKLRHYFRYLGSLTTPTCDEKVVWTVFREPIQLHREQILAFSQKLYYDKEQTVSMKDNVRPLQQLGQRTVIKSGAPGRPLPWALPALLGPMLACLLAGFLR
# pKi: −log10 of the molar value.
# Biological target: Carbonic anhydrase 4 (Homo sapiens, UniProt P22748)
# Assay: Esterase Activity Assay
# Settings: pH 7.4
smiles,measurement,value
"Oc1ccccc1O [1,2-Dihydroxybenzene, XI]",pKi,4.92
